What was measured:
[1] = molecular target: full length human TREX1 (Homo sapiens, UniProt Q9NSU2); experiment: TREX1 Biochemical Assay (fluorescence, dsDNA substrate degradation); settings: read-out: TREX1 IC50; 150 pM TREX1, 60 nM dsDNA substrate, 25 minutes at room temperature
Protocol: (§1) Degradation of the dsDNA liberates free fluorophore to produce a fluorescent signal. Specifically, 7.5 μL of N-terminally His-Tev tagged full length human TREX1 (expressed in E. coli and purified in house) in reaction buffer (50 mM Tris (pH 7.4), 150 mM NaCl, 2 mM DTT, 0.1 mg/mL BSA, 0.01% (v/v) Tween-20 and 100 mM MgCl2) was added to a 384-well Black ProxiPlate Plus (Perkin Elmer) which already contained compound (150 nL) at varying concentrations as a 10 point dose-response in DMSO. To this was added 7.5 μL of dsDNA substrate (Strand A: 5′ TEX615/GCT AGG CAG 3′; Strand B: 5′ CTG CCT AGC/IAbRQSp (Integrated DNA Technologies)) in reaction buffer. Final concentrations were 150 pM TREX1, 60 nM dsDNA substrate in reaction buffer with 1.0% DMSO (v/v). After 25 minutes at room temperature, reactions were quenched by the addition of 5 μL of stop buffer (same as reaction buffer plus 200 mM EDTA). […] After a 5-minute incubation at room temperature, plates were read in a laser sourced Envision (Perkin-Elmer), measuring fluorescence at 615 nm following excitation w/570 nm light. IC50 values were calculated by comparing the measured fluorescence at 615 nm ratio relative to control wells pre-quenched w/stop buffer (100% inhibition) and no inhibitor (0% inhibition) controls as using non-linear least square four parameter fits and either Genedata or GraphPad Prism (GraphPad Software, Inc.).

Chains of the proteins cited; added tags and fusions are not shown.
UniProt Q9NSU2, whole entry: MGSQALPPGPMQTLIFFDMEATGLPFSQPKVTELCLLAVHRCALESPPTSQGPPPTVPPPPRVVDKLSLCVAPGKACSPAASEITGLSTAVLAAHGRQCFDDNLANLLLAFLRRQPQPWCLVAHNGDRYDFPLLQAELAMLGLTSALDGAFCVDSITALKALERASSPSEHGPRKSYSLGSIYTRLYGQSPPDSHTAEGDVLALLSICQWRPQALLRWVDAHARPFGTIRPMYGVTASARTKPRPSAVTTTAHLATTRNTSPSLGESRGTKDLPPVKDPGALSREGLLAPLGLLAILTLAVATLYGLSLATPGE
UniProt Q9BQ50, whole entry: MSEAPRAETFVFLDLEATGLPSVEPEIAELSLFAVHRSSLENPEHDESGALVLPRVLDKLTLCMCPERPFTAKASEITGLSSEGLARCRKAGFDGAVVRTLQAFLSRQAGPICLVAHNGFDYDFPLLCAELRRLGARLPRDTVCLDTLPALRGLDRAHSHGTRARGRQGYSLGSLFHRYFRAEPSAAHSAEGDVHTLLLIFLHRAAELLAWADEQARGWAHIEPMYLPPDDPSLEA

[2] = molecular target: human TREX2 (residues M44-A279) (Homo sapiens, UniProt Q9BQ50); experiment: TREX2 Biochemical Assay (fluorescence, dsDNA substrate degradation); settings: read-out: TREX2 IC50; 2.5 nM TREX2, 60 nM dsDNA substrate, 25 minutes at room temperature
Protocol: as §1, with “tagged” for “tagged full length”, “TREX2 (residues M44-A279, expressed” for “TREX1 (expressed”, “(IDT))” for “(Integrated DNA Technologies))”, “2.5 nM TREX2,” for “150 pM TREX1,”

[3] = test system: HCT116 dual cells; experiment: HCT116 Cell Assay (Lucia luciferase reporter of Type I interferon induction); settings: read-out: HCT116 EC50; 4 h pre-treatment, pBR322/BstNI DNA transfection, Lucia luciferase at 48 h; relative to 10 uM compound 39
Description: HCT116 dual cells (Invivogen, San Diego, Calif., USA) are derived from the human HCT116 colorectal carcinoma cell line. Cells have been selected for the stable integration of SEAP and Luciferase reporter genes, which expression is under the control of 5 tandem response elements for NF-KB/AP1 and STAT1/STAT2, respectively. The cell line was used to monitor Type I interferon induction and subsequent signaling by measuring the activity of the Lucia luciferase secreted in the culture medium.
HCT116 cells were plated in 96-well plate(s) at 40,000 cells/well in 100 uL DMEM supplemented with 10% FBS and 25 mM Hepes (pH 7.2-7.5). After overnight settling, cells were treated with TREX1i for 4 h (maximum DMSO fraction was 0.1%) before 1.25 ug/mL pBR322/BstNI restriction digest (New England Biolabs, Ipswich, Mass., USA) was transfected with Lipofectamine LTX (ThermoFisher, Grand Island, N.Y., USA), according to product manual recommendations. Briefly, Lipofectamine LTX (0.4 uL/well) was diluted in OptiMEM (5 uL/well). pBR322/BstNI (100 ng/well) was diluted in OptiMEM (5 uL/well) before Plus reagent (0.1 uL/100 ng DNA) was added. After 5 min incubation at room temperature, the DNA mixture was mixed dropwise with the diluted Lipofectamine LTX. After an additional 10 min incubation, the transfection mix (10 uL/well) was added to the cells. […]

IC50 [1]: < 100 nM
IC50 [2]: < 1000 nM
EC50 [3]: < 1000 nM
SMILES: CCOc1cccc(Cl)c1C(c1ccccc1)N(C)c1nc(C(=O)Nc2cnoc2)c(O)c(=O)n1C (single isomer, unassigned)

— US20220289728A1, “MODULATORS OF TREX1” (Constellation Pharmaceuticals, Inc., priority 2019, published 2022)
